Patent publication US20250032489A1, “MIXED LINEAGE KINASE INHIBITORS AND METHODS OF USE” (The U.S.A., as represented by the Secretary, Department of …, priority 2022, published 2025)

Sequences of proteins named here, by UniProt entry; tags and fusion partners are left off.
UniProt O43283, whole entry: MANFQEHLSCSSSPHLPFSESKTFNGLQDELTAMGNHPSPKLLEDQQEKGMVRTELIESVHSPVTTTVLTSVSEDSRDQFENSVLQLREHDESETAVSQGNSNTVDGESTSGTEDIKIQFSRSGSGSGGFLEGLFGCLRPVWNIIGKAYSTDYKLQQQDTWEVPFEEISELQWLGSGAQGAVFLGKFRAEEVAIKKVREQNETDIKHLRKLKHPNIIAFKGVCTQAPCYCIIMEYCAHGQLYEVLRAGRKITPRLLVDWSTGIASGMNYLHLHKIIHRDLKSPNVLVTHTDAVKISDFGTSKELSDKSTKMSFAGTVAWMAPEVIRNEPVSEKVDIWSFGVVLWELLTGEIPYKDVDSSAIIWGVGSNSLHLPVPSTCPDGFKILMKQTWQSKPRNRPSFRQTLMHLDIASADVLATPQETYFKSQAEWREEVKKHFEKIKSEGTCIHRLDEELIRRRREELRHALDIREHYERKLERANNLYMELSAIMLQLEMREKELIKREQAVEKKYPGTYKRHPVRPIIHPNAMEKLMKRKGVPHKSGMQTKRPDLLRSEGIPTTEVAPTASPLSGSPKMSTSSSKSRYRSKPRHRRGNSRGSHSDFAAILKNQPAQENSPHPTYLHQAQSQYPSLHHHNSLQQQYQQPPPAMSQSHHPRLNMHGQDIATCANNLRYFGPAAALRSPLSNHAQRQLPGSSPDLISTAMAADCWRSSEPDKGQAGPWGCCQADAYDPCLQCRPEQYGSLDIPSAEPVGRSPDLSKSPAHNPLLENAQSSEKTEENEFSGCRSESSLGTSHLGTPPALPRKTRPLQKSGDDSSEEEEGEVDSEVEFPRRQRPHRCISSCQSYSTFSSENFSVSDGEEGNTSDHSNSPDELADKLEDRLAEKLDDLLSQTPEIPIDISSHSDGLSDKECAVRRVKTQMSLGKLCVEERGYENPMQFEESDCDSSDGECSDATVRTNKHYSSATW

Target: LZK (Homo sapiens (Human), UniProt O43283)
Test: KD determination, Eurofins DiscoveRx Kd-Elect
Type: binding
Conditions: ratio of LZK Kd to DLK Kd

In the case of `Cc1cnc(Nc2cc(C3CCN(C)CC3)cc(N3CCC(F)(F)C3)n2)cn1`, the “Ratio (LZK/DLK)” value is reported as 1.3.
